This experiment deals with Protein-arginine deiminase type-4 (Homo sapiens, UniProt Q9UM07). The experiment can be described thus: Inhibition of PAD4 measured by intercept plot of Lineweaver-Burke analyses.

Chains of the proteins cited; added tags and fusions are not shown.
UniProt Q9UM07, whole entry: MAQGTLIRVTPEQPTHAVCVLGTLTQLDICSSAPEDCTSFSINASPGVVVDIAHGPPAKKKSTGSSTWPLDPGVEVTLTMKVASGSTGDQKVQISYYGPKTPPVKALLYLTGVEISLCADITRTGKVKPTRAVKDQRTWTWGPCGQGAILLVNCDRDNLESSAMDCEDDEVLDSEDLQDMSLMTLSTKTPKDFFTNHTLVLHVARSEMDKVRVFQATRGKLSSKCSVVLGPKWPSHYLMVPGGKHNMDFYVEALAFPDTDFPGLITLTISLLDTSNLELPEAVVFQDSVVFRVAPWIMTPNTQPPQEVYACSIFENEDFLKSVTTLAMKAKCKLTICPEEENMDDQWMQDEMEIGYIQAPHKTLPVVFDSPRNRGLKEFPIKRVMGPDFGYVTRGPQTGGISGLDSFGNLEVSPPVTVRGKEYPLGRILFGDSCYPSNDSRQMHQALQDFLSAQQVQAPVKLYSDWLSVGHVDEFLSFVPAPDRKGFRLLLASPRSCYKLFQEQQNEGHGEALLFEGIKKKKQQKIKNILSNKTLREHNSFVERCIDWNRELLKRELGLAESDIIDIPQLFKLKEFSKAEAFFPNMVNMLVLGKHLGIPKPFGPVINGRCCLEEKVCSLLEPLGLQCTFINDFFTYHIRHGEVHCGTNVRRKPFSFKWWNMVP

The record followed here is ChEMBL document CHEMBL1143172, “Profiling Protein Arginine Deiminase 4 (PAD4): a novel screen to identify PAD4 inhibitors” (Bioorg Med Chem, 2008).

Turning to `C[C@H]1c2cccc(O)c2C(=O)C2=C(O)C3(O)C(=O)C(C(N)=O)=C(O)[C@@H](N(C)C)[C@@H]3[C@@H](O)[C@@H]21` (single isomer, unassigned) [DOXYCYCLINE], the affinity, expressed as Ki, was 630 µM.

By Ki is commonly meant the equilibrium dissociation constant of an inhibitor or competing ligand from its target. Low readings indicate a stronger hold on the target, high ones a looser hold on the target.
